In this assay the target is KOR-1 receptor (Homo sapiens, UniProt P41145). Briefly: ^3H-diprenorphine saturation binding assay on SK12 cells.

The chains behind the UniProt entries cited, without tags or fusion partners.
UniProt P41145, whole entry: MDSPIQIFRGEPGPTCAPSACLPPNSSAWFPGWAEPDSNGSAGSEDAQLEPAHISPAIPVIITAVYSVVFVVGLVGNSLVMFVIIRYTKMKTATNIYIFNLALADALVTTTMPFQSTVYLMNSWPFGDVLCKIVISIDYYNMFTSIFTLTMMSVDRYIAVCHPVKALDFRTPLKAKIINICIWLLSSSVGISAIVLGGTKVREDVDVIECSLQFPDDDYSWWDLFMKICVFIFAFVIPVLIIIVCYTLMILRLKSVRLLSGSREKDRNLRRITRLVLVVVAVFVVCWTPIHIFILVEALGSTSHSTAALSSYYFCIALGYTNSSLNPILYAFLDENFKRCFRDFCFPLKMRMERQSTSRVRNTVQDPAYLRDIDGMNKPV

The values that follow come from patent US8455203B2.

Only a part of the results on these compounds is given; other tests are left out.

^3H-diprenorphine: the non-specific binding result is “about 25%” and the specific binding amounted to 75%.
